Data taken from BindingDB's records for doi:10.1021/jm049515h (University of Bologna, 2005).

The chains behind the UniProt entries cited, without tags or fusion partners. Where a name states a change or a piece, a line headed by the entry shows the natural chain unless it says otherwise.
UniProt P22303: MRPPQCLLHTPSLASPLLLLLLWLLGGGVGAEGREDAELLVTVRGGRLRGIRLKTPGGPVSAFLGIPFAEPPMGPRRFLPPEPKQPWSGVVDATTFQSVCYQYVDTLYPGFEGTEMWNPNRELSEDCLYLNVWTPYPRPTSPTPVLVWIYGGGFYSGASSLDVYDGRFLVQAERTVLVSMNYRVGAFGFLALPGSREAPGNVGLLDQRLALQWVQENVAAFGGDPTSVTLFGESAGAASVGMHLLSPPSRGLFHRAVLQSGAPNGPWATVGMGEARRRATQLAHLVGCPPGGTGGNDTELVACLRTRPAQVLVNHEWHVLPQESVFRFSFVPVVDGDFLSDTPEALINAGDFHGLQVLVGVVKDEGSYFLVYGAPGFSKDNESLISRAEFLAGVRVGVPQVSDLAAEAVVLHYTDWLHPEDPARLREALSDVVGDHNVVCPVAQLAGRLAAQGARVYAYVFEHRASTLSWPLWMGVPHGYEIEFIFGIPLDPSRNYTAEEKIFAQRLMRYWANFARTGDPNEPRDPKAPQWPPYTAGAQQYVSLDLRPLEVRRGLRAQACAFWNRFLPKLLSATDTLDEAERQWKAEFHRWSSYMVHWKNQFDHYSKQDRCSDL

Molecular target: Acetylcholinesterase (Homo sapiens, UniProt P22303)
Test: The cholinesterase assays were performed using colorimetric method reported by Ellman. […] The reaction rates were compared and the percent inhibition due to the presence of test compounds was calculated. Inhibition curve was obtained for each compound.
Details: pH 8; 37 °C

## CNC(=O)Oc1cccc(CN(C)CCCCCCCOc2ccc3c(O)coc3c2)c1 [3-[(methyl{7-[(3-oxo-2,3-dihydro-1-benzofuran-6-yl)oxy]heptyl}amino)methyl]phenyl methylcarbamate]
  IC50: 1610 nM
